The source of these data is ChEMBL document CHEMBL1128263, “N-(1-methyl-5-indolyl)-N'-(3-methyl-5-isothiazolyl)urea: a novel, high-affinity 5-HT2B receptor antagonist” (J Med Chem, 1995).

The chains behind the UniProt entries cited, without tags or fusion partners.
UniProt P35462, whole entry: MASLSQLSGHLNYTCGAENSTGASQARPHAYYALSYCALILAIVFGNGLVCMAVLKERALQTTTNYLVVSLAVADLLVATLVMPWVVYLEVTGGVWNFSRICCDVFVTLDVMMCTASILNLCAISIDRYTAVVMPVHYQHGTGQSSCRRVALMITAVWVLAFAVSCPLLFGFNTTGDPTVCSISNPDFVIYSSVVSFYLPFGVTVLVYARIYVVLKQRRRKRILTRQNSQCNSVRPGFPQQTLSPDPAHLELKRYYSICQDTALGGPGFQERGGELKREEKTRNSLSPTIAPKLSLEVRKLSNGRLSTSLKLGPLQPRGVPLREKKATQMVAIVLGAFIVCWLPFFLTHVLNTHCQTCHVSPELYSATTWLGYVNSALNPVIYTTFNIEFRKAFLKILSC

The target in this test is D(3) dopamine receptor (Homo sapiens, UniProt P35462). The test can be described thus: The binding affinity (pKi) measured against Dopamine receptor D3 (cloned human receptors in CHO cells) using [125I]iodosulpiride as radioligand. In kind it is cell-based.

In the case of `Cc1cc(NC(=O)Nc2ccc3c(ccn3C)c2)sn1`, the Ki (commonly the equilibrium dissociation constant of an inhibitor or competing ligand from its target) was greater than 31.6 µM.
